The values that follow come from EP1351565B1, “CHEMICAL INHIBITORS OF MISMATCH REPAIR” (Morphotek, Inc., priority 2001, dated 2002).

The assay has as its system H36pCAR-OF cell line. The experiment in a line: H36pCAR-OF screening assay (MMR-sensitive β-galactosidase reporter). Format: cell-based, murine.

`CN(N=O)C(=N)N[N+](=O)[O-]`: the “MI and/or shifting of the polynucleotide tract in the pCAR-OF reporter (β-galactosidase positive cells)” value was “did not result in MI”.
